Assay: Testosterone solubility by the increment method
Assay type: physicochemical
Details: water/ethanol mixture
Method: A known amount of solvent (2 mL) is stirred at 37° C. in a closed Erlenmeyer.

In the case of `C[C@]12CC[C@H]3[C@@H](CCC4=CC(=O)CC[C@@]43C)[C@@H]1CC[C@@H]2O` [Testosterone], the Testosterone solubility (95% ethanol (v/v) 56/44, 37° C.) is reported as 0.027 g/g, the Testosterone solubility (95% ethanol (v/v) 63/37, 37° C.) is reported as 0.035 g/g and the Testosterone solubility (95% ethanol (v/v) 74/26, 37° C.) is reported as 0.061 g/g. For the same compound, the Testosterone solubility (95% ethanol (v/v) 84/16, 37° C.) was 0.146 g/g, the Testosterone solubility (95% ethanol (v/v) 86/14, 37° C.) was 0.195 g/g and the Testosterone solubility (95% ethanol (v/v) 100/0, 37° C.) was 0.420 g/g.

— patent US20080038220A1 (LABORATOIRES BESINS INTERNATIONAL, priority 2004, published 2008)
